Measurements reported in article PMC5598323 (Toxicology Reports, 2015).

The chains behind the UniProt entries cited, without tags or fusion partners.
UniProt P11712, whole entry: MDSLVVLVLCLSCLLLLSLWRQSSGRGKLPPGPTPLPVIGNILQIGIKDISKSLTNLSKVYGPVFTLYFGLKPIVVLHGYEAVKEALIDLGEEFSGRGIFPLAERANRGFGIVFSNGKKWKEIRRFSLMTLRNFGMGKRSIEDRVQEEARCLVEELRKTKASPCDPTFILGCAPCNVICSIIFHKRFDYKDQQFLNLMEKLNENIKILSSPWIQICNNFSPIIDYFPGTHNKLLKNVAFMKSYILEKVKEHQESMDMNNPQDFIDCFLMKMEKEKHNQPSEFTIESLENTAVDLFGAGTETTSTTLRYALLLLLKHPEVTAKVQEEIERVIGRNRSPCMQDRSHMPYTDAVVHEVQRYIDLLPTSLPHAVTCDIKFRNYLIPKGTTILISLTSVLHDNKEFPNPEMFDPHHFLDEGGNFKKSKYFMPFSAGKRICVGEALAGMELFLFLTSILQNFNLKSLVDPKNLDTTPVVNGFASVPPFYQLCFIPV

Target: CYP2C9 (Homo sapiens, UniProt P11712)
Test: CYP2C9 diclofenac 4′-hydroxylation assay in human liver microsomes
Conditions: HLM; positive control at 0.3 μM; vs negative solvent control

Sulphaphenazole [reference compound]
inhibition of CYP2C9 enzyme activity: 50%
